Target: novel mammalian opioid receptor (LC132, OFQR) (Rattus norvegicus, UniProt P35370)
Settings: membranes of transient (COS-7) and stable (Ltk^−) transfectants, 120 min at 22° C.

Chains of the proteins cited; added tags and fusions are not shown. Lines headed by an entry give the natural chain unless they say otherwise; changes in a name come on top.
UniProt P35370: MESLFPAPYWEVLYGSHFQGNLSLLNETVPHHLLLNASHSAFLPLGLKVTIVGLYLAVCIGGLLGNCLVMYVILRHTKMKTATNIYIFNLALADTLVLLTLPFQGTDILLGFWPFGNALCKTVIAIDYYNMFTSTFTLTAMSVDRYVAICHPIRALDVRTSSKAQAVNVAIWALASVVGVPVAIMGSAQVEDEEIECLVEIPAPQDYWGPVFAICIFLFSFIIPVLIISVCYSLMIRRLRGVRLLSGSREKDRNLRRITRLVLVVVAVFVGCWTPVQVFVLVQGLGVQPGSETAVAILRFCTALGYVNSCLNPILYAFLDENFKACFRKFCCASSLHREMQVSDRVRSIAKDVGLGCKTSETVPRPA

SMILES: CO[C@]12CC[C@@]3(C[C@@H]1C(C)(C)O)[C@H]1Cc4ccc(O)c5c4[C@@]3(CCN1CC1CC1)[C@H]2O5
- specific binding of the radioactively-labeled ligand: no specific binding
